In ChEMBL document CHEMBL4834393, “Building a Chemical Toolbox for Human Pregnane X Receptor Research: Discovery of Agonists, Inverse Agonists, and Antagonists Among Analogs Based on the Unique Chemical Scaffold of SPA70” (J Med Chem, 2021):
Activity calls are given as the source filed them.

Assays:
Assay type in all cases: cell-based
[1] = target: T1, Bile acid receptor (Homo sapiens) (UniProt Q96RI1); experiment: Agonist activity at human FXR expressed in HEK293T cells by luciferase reporter assay
T1 sequence (whole entry): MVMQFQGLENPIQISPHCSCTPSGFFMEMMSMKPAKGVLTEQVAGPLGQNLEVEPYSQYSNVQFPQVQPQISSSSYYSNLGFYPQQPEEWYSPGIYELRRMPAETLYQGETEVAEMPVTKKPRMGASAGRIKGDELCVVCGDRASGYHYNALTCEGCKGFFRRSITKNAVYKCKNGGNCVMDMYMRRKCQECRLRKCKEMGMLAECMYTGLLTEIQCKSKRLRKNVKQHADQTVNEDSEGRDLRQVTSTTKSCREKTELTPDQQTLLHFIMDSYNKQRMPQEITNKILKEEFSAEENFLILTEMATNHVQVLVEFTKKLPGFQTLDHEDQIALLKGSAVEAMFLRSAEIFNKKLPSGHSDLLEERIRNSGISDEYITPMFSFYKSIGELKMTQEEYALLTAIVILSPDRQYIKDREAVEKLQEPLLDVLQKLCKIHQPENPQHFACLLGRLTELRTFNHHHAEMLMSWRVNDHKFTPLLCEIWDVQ

[2] = target: T2, Vitamin D3 receptor (Homo sapiens) (UniProt P11473); experiment: Agonist activity at human VDR expressed in HEK293T cells by luciferase reporter assay
T2 sequence (whole entry): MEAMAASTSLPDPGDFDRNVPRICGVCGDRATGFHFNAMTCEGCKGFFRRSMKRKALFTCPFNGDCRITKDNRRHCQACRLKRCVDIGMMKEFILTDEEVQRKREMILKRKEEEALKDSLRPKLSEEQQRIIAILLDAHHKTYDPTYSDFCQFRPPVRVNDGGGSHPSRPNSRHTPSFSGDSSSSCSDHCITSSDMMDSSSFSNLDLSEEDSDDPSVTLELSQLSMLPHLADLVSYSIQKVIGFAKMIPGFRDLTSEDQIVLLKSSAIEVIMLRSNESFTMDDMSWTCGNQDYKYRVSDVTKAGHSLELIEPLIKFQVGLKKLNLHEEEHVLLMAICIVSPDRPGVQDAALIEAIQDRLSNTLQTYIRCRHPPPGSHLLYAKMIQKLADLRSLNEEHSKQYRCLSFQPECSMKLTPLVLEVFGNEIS

[3] = target: T1, Bile acid receptor (Homo sapiens); experiment: Antagonist activity at human FXR expressed in HEK293T cells in presence of GW4064 by luciferase reporter assay
[4] = target: T2, Vitamin D3 receptor (Homo sapiens); experiment: Antagonist activity at human VDR expressed in HEK293T cells in presence of 1alpha,25-dihydroxyvitamin D3 by luciferase reporter assay

Measured: Activity

CCc1c(S(=O)(=O)c2ccc(C(C)(C)C)cc2)nnn1-c1cc(OC)ccc1OC
inactive: all assays above
